The record followed here is US20090137681A1 (published 2009).

By UniProt entry, the sequences of proteins in these tests, tags left out. Where a name states a change or a piece, a line headed by the entry shows the natural chain unless it says otherwise.
UniProt P06700: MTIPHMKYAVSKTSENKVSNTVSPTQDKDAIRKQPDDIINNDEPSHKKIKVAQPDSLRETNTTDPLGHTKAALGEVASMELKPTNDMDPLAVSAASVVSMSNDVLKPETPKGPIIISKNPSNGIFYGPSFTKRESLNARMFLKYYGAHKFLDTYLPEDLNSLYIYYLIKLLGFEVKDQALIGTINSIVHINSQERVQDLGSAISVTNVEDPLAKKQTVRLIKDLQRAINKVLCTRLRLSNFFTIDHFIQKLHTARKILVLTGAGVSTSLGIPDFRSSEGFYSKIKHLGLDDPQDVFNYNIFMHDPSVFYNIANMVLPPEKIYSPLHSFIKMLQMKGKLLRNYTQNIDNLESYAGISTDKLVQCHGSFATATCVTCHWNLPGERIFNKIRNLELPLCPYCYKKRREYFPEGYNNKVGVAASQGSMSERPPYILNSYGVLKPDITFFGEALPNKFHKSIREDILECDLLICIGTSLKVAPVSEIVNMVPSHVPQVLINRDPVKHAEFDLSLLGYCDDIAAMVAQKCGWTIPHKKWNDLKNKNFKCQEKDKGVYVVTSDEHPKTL

This assay addresses yeast Sir2 (ySir2) (Saccharomyces cerevisiae, UniProt P06700). The assay is described as follows: Yeast Sir2 deacetylase inhibition, HDAC fluorescent activity assay (BIOMOL AK-500).

By IC50 is commonly meant the concentration that gives 50% inhibition. A lower IC50 goes with inhibition by little substance.

Molecules are shown by their SMILES.

With `CC(NC(=O)c1ccccc1/N=C/c1c(O)ccc2ccccc12)c1ccccc1` (racemic) [Compound 1, sirtinol, reference compound], 48 µM corresponded to half-maximal inhibition (IC50).
